Measured values from patent publication US8067603B2 (priority 2003, dated 2011).
Only a part of the results on these compounds is given; other tests are left out.

Chains of the proteins cited; added tags and fusions are not shown.
UniProt P41146, whole entry: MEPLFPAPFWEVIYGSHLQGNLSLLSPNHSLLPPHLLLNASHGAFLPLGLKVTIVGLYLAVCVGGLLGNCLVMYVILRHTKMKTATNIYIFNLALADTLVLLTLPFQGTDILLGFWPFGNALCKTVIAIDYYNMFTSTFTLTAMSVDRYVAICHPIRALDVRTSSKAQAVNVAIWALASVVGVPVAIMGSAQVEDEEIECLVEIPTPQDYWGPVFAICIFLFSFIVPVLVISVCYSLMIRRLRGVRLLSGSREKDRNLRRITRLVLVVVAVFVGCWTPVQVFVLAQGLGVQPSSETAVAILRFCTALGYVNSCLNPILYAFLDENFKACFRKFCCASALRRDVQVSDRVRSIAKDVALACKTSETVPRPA
UniProt P35372, whole entry: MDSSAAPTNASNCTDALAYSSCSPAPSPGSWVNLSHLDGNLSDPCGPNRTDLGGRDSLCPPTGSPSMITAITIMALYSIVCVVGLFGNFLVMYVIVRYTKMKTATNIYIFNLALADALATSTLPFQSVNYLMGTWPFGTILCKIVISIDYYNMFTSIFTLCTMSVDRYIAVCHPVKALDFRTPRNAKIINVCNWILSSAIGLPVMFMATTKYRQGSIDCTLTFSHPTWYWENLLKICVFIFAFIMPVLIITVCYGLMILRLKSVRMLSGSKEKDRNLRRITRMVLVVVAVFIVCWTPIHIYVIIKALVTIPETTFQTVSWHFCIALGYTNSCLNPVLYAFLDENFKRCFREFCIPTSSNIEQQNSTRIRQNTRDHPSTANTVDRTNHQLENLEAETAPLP
UniProt P35370, whole entry: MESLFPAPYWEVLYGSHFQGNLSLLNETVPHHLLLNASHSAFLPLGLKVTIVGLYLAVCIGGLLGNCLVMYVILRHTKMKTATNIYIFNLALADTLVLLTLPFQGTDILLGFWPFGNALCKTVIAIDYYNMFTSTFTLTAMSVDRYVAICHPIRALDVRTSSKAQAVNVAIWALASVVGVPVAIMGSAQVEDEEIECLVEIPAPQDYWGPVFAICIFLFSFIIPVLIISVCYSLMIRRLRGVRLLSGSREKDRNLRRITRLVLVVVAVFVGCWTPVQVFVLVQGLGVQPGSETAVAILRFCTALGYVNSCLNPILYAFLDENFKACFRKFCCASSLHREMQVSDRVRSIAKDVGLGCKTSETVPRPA

Legend:
ORL1 receptor [1] = target: T1, ORL1 receptor (Homo sapiens, UniProt P41146); assay: Affinity for human ORL1 receptors, [3H]-nociceptin binding, CHO-cell membranes; settings: membranes of CHO-cells expressing human ORL1
Description: Affinity of the compounds for human ORL1 receptors was determined using the in vitro receptor binding assay described by Ardati et al., Mol. Pharmacol., 51, 816, 1997. Briefly, membrane preparations were obtained from CHO-cells in which the human ORL1 receptor was stably expressed. Membranes were incubated with [^3H]-nociceptin in the absence or presence of test compound in different concentrations, diluted in a suitable buffer. Non specific binding was defined as binding remaining in the presence of 10^−6 M nociceptin. Separation of bound radioactivity from free was done by filtration through Packard GF/B glass fiber filters with several washings with ice-cold buffer using a Packard cell harvester. Bound radioactivity was measured with a scintillation counter (Topcount, Packard) using a liquid scintillation cocktail (Microscint 0, Packard). Measured radioactivity was plotted against the concentration of the displacing test compound and displacement curves were calculated by four-parameter logistic regression, resulting in IC50 values, i.e. that concentration of test compound by which 50% of the radioligand is displaced.

ORL1 receptor [2] = target: T1, ORL1 receptor; assay: In vitro ORL1 receptor agonism, cAMP assay
Description: Activation of the G protein-coupled ORL1 receptor inhibits adenylate cyclase activity and reduces the intracellular concentration of the second messager cAMP. Using the assay as described by Jenck et al., Proc. Natl. Acad. Sci. USA, 97, 4938-4943, 2000, the activity of the compounds on ORL1 receptors was measured.

human μ-opiate receptor = human μ-opiate receptor (Homo sapiens, UniProt P35372); assay: Affinity for human μ-opiate receptors, [3H]-naloxone binding, CHO-cell membranes; settings: membranes of CHO-cells expressing human μ-opiate receptor
Description: Affinity of the compounds for μ-opiate receptors was determined using the in vitro receptor binding assay described by Childers et al, Eur. J. Pharm 55, 11, 1979. Briefly, membrane preparations were obtained from CHO-cells in which the human μ-opiate receptor was stably expressed, and were incubated with the [^3H]-naloxone in the absence or presence of test-compounds in a concentration range from 10 μM down to 0.1 nM, diluted in a suitable buffer. Non specific binding was defined as binding remaining in the presence of 10^−7 M levallorphan tartrate.

rats = assay: ORL1 agonist induced decrease in blood pressure; settings: anaesthetized rats
Male Wistar rats = assay: ORL1 agonist and morphine induced effects on food intake; format: in vivo; settings: agonist 6 mg/kg
ORL1 receptor [3] = target: ORL1 receptor (Rattus norvegicus, UniProt P35370); assay: In vivo ORL1 agonism: Conditioned Ultrasonic Distress Vocalisation (CUDV)

| SMILES | affinity ORL1 pKi (ORL1 receptor [1]) | In vitro agonism cAMP assay pEC50 (ORL1 receptor [2]) | affinity μ-opi pKi (human μ-opiate receptor) | other results |
| --- | --- | --- | --- | --- |
| O=c1[nH]c2ccc(Cl)cc2n1C1CCN(C2CCC3CCCc4cccc2c43)CC1 (centres unmarked) | 8.1 | 7.1 | 6.6 | – |
| O=c1[nH]c2ccc(F)c(F)c2n1C1CCN(C2CCC3CCCc4cccc2c43)CC1 (centres unmarked) | 7.4 | – | <6.0 | – |
| COc1ccc2[nH]c(=O)n(C3CCN(C4CCC5CCCc6cccc4c65)CC3)c2c1 (centres unmarked) | 7.3 | – | – | – |
| O=c1[nH]c2ccc(F)cc2n1C1CCN(C2CCC3CCCc4cccc2c43)CC1 (centres unmarked) | 8.2 | 9.2 | 6.9 | – |
| O=c1[nH]c2ccc(C(F)(F)F)cc2n1C1CCN(C2CCC3CCCc4cccc2c43)CC1 (centres unmarked) | 7.3 | – | <6.0 | – |
| O=c1[nH]c2cc(F)ccc2n1C1CCN(C2CCC3CCCc4cccc2c43)CC1 (centres unmarked) | 8.4 | – | 6.4 | – |
| O=c1[nH]c2ccccc2n1C1CCN(C2CCC3CCCc4cccc2c43)CC1 (centres unmarked) | 8.4 | 9.6 | 7.0 | ED80 (dose producing 20% reduction in blood pressure), +2 mg/kg naloxone (rats; i.v., 2 mg/kg naloxone 10 min before): 0.334 mg/kg; ED80 (dose producing 20% reduction in blood pressure when compared to control values), Compound alone (rats; increasing i.v. doses, compound alone): 0.356 mg/kg; Intake, antagonism by J-113397 (Male Wistar rats; J-113397 0 mg/kg): 1.25 ± 0.39 g; Intake, antagonism by J-113397 (Male Wistar rats; J-113397 3 mg/kg): 0.15 ± 0.08 g; Intake, antagonism by J-113397 (Male Wistar rats; J-113397 10 mg/kg): 0.08 ± 0.002 g; Intake, antagonism by J-113397 (Male Wistar rats; J-113397 30 mg/kg): 0.07 ± 0.002 g; Intake, antagonism by Naloxone (Male Wistar rats; naloxone 0 mg/kg): 1.02 ± 0.30 g; Intake, antagonism by Naloxone (Male Wistar rats; naloxone 0.3 mg/kg): 0.51 ± 0.16 g; Intake, antagonism by Naloxone (Male Wistar rats; naloxone 1 mg/kg): 0.74 ± 0.27 g; Intake, antagonism by Naloxone (Male Wistar rats; naloxone 3 mg/kg): 0.78 ± 0.23 g; CUDV ED50 i.p. (ORL1 receptor [3]; intraperitoneal): 0.2 mg/kg; CUDV ED50 p.o. (ORL1 receptor [3]; per os (oral)): 0.9 mg/kg |
| O=c1[nH]c2ccccc2n1C1CCN([C@@H]2CC[C@H]3CCCc4cccc2c43)CC1 | 7.5 | 8.7 | 6.6 | – |
| O=c1[nH]c2ccc(OC(F)(F)F)cc2n1C1CCN(C2CCC3CCCc4cccc2c43)CC1 (centres unmarked) | 7.5 | – | – | – |
| O=c1[nH]c2cccc(F)c2n1C1CCN(C2CCC3CCCc4cccc2c43)CC1 (centres unmarked) | 7.8 | – | – | – |
| Cc1cccc2c1[nH]c(=O)n2C1CCN(C2CCC3CCCc4cccc2c43)CC1 (centres unmarked) | 8.6 | – | 7.5 | – |
| O=c1[nH]c2ccccc2n1C1CCN([C@H]2CC[C@@H]3CCCc4cccc2c43)CC1 | 8.8 | 9.8 | 7.5 | – |
